# Test results reported in PMC8397948, “Effect of Selected Antidepressants on Placental Homeostasis of Serotonin: Maternal and Fetal Perspectives” (Pharmaceutics, 2021).
# Where a name gives a salt, the structure may show the parent alone.
# How the values were obtained:
# [1] = Published plasma concentrations and fetal-to-maternal ratios in (pregnant) women; assay type: in vivo, human; conditions: matches Ca x F/M ratio of published values
# [2] = pregnant women or women, cited from earlier work; for Cmax: read-out: Cmax (maximum steady-state plasma concentration)
# [3] = system: placental efflux transporters; assay: Dually perfused rat term placenta, closed-circuit setup: fetal/maternal concentration ratio; conditions: GF 120918 2 µM (P-gp and BCRP inhibitor), drug 1 µM
SMILES,Ca;fetal (average fetal plasma concentration) [1] [nM],Ca (average maternal plasma concentration) [2] [nM],Cmax [2] [nM],Effect of GF 120918 on reduction of drug concentration in fetal circulation (efflux) [3]
"CNCCC(Oc1ccc(C(F)(F)F)cc1)c1ccccc1 (stereo not drawn) [Fluoxetine, fluoxetine hydrochloride]",368,557,1900,–
"CN[C@H]1CC[C@@H](c2ccc(Cl)c(Cl)c2)c2ccccc21 [Sertraline, sertraline hydrochloride]",–,104,1300,not inhibited
